Target: Acetylcholinesterase (Homo sapiens, UniProt P22303)

Sequences of proteins named here, by UniProt entry; tags and fusion partners are left off. Residues count along the entry.
UniProt P22303, 32-614 limits assumed: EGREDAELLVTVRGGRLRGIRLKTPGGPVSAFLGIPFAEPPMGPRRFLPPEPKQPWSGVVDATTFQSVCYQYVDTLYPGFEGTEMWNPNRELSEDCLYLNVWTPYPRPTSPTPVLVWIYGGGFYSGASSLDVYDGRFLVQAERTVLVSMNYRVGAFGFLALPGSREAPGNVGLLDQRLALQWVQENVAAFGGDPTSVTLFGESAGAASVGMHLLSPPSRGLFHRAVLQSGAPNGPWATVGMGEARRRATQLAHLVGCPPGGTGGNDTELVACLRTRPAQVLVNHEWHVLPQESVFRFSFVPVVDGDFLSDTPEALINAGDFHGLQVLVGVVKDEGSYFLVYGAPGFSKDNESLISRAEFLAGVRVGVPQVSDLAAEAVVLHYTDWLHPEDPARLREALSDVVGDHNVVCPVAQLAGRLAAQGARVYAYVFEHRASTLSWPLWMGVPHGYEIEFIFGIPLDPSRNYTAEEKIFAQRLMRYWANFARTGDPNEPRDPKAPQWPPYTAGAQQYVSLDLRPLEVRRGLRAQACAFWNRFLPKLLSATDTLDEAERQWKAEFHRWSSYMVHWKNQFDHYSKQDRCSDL

In the case of c1cc[n+](CCCCCCCCCC[n+]2cccc3ccccc32)cc1, the Ki is reported as 0.4 µM.

— ChEMBL document CHEMBL3091342, “Preparation, in vitro evaluation and molecular modelling of pyridinium-quinolinium/isoquinolinium non-symmetrical bisquaternary cholinesterase inhibitors” (Bioorg Med Chem Lett, 2013)
